Patent US20250339531A1, “DUX4 POLYPEPTIDES AND NUCLEIC ACIDS FOR TREATING INFLAMMATORY AND AUTOIMMUNE CONDITIONS” (Fred Hutchinson Cancer Center, priority 2021, published 2025)

Test system: proteins that co-immunoprecipitated with DUX4-CTD constructs expressed in MB135 myoblasts
Assay: LC-MS of proteins co-immunoprecipitated with DUX4-CTD (Table 1) and western validation
Format: binding, human
Design: key to 3. + IFNg + Dox longCTD / 3. + Dox longCTD / 4. mL1dL2 + Dox + IFNG: peptide-spectrum matches (PSMs) per protein
Settings: for 3. + IFNg + Dox longCTD: bait longCTD, experiment 3, IFNg + Dox; for SUM of PSMS: sum over all samples
Excerpt: As an unbiased method to identify proteins that interact with the C-terminal region of DUX4, liquid chromatography mass spectroscopy (LC-MS) was used to identify proteins that co-immunoprecipitated with DUX4-CTD constructs expressed in MB135 myoblasts. In the first experiment, MB135iDUX4-CTD cells were used, either untreated, treated with doxycycline alone, or with both doxycycline and IFNG. In the second experiment, MB135iDUX4-CTD and MB135iDUX4mL1dL2 cells were used, both treated with doxycycline and IFNG, compared to these two cell lines untreated and combined as a control. Proteins with a minimum of 2 peptide spectrum matches (PSMs) in at least one sample that were identified in both experiments were assigned to one of ten categories (see Methods) to separate candidate interactors from other categories that might be co-purified because of obligate interactions (e.g., proteasome or ribosome) or might be less likely to be physiologically relevant (e.g., cytoskeletal proteins). Candidate interactors were then ranked based on the total PSMs for that protein across all samples.
Centrifugation at 2500 rcf at 4° C. for 5 min pelleted the nuclei, supernatant was discarded, and nuclei resuspended in 1 mL IP buffer pH 7.4 (25 mM Tris-HCl pH 7.5, 175 mM NaCl, 1 mM EDTA, 0.2% NP-40, 5% glycerol) and incubated for 1 hour at 4° C. with rotation then spun at 21000 rcf for 10 minutes at 4° C. to pellet insoluble debris. Protein concentration was determined using the Pierce BCA Protein Assay Kit (ThermoFisher, 23225). An equivalent amount of protein per sample was pre-cleared with Dynabeads Protein G (Invitrogen) bound to mouse IgG (Abcam #131368) for 1 hour at 4° C. with rotation. FLAG-tagged constructs were then immunoprecipitated with Dynabeads Protein G beads coupled to mouse anti-FLAG M2 mAb (Sigma F3165) for 3 hours at 4° C. with rotation. Beads were washed 3× with 1 mL IP buffer and eluted by adding 2× NuPage LDS Sample Buffer (Thermo Fisher, diluted from 4× with PBS) to the beads and heating for 10 minutes at 70° C.
For LC-MS, anti-FLAG immunoprecipitation was performed with beads cross-linked to the anti-FLAG antibody and the proteins competitively eluted with FLAG peptide. Eluted protein samples were electrophoresed into a NuPage 4-12% Bis-Tris gel, excised, and processed by the Fred Hutchinson Cancer Research Center Proteomics Core. Samples were reduced, alkylated, digested with trypsin, desalted, and run on the Orbitrap Eclipse Tribid Mass Spectrometer (Thermo Fisher). Proteomics data were analyzed using Proteome Discoverer 2.4 against a Uniprot human database that included common contaminants using Sequest HT and Percolator for scoring. […] Proteins that were identified in at least one sample from both independent experiments with at least 2 PSMs in one sample were assigned to one of ten categories: 1, candidates; 2, cytoskeletal associated; 3, cytoskeletal; 4, ribosome/translation associated; 5, proteasome associated; 6, membrane or extracellular; ER, golgi, or vesicle associated; 8, lipid metabolism; 9, chaperones; 10, nuclear import or nuclear membrane associated. The proteins in category 1 were further investigated for interactions with DUX4.

| Substance | 3. + IFNg + Dox longCTD | SUM of PSMS | 4. mL1dL2 + Dox + IFNG (LC-MS value per protein co-immunoprecipitated with DUX4-CTD construct mL1dL2 in MB135 myoblasts, + Dox + IFNG, kind of count not given) |
| --- | --- | --- | --- |
| P13010 | 5 | 6 | – |
| Q93009 | 6 | 15 | – |
| USP7 | – | – | 9 |
